Laboratory results as given in patent publication US7223792B2, “Cytotoxic annonaceous acetogenins from Annona muricata” (Advpharma Inc., priority 2001, dated 2007).

Test system: Hep G2
Test: three days cytotoxicity bioassay against Hep G2
Conditions: human hepatoma cell line Hep G2, three days bioassay

In the case of “Corossolin [Corossolin (11), reference compound]”, the “Cytotoxicity IC50 Hep G2” value is reported as 0.353 µg/mL.
